Source: paper PMC10485887, “PET Evaluation of the Novel F-18 Labeled Reversible Radioligand [^18F]GEH200449 for Detection of Monoamine Oxidase-B in the Non-Human Primate Brain” (ACS Chemical Neuroscience, 2023)
Where “and” joins values, the source holds several entries; their conditions need not be identical. Equal entries are not always repeated. Where two headings read alike, the source gives them in different places.

Test system: MAO-B
Format: in vivo, Macaca fascicularis
Settings: for occupancy at MAO-B ([^18F]GEH200449 binding sites): 45 min before radioligand
Protocol: Each PET measurement was performed on a separate experimental day. Experiments conducted in the same NHP were separated by at least 6 weeks. Baseline PET measurements were initially undertaken in each of the five NHPs.
Time curves for regional [^18F]GEH200449 binding at baseline were analyzed by kinetic modeling using 1-TC and 2-TC models,[32] and VT as outcome measures. Akaike information criterion[33] and F statistics were applied to select the preferred model. Regional estimates of VT for [^18F]GEH200449 were also obtained using the Logan linear graphical method[34] with t* fixed at 40 min. The analyses were performed using the kinetic modeling tool in PMOD v. 4.3. Occupancy at [^18F]GEH200449 binding sites was estimated based on regional VT values obtained by the Logan method at baseline and after drug administration according to a graphical procedure described in the literature.[22]

**Q.** Which results are given for `C#CCN(C)[C@H](C)Cc1ccccc1` [L-deprenyl]?
**A.** occupancy at MAO-B ([^18F]GEH200449 binding sites) (0.5 mg/kg IV, NHP #4, graphical analysis of VT): 97% and > 80%; effect on [^18F]GEH200449 binding, displacement (0.5 mg/kg administered 25 min after radioligand injection): markedly reduced; occupancy at MAO-B ([^18F]GEH200449 binding sites) (1.0 mg/kg IV, NHP #1, graphical analysis of VT): 82% and > 80%; effect on [^18F]GEH200449 regional radioactivity (pretreatment 45 min before radioligand injection): inhibited
